The values that follow come from ChEMBL document CHEMBL4414576, “Recent advancements in mechanistic studies and structure activity relationship of FoF1 ATP synthase inhibitor as antimicrobial agent” (Eur J Med Chem, 2019).

The structures appear in SMILES notation.

The assay is described as follows: Inhibition of F1F0-ATP synthase in Escherichia coli.

`CC[C@H](C)[C@H](NC(=O)CN)C(=O)NCC(=O)N[C@@H](C)C(=O)N[C@H](C(=O)N[C@@H](CC(C)C)C(=O)N[C@@H](CCCCN)C(=O)N[C@H](C(=O)N[C@@H](CC(C)C)C(=O)N[C@H](C(=O)N[C@H](C(=O)NCC(=O)N[C@@H](CC(C)C)C(=O)N1CCC[C@H]1C(=O)N[C@@H](C)C(=O)N[C@@H](CC(C)C)C(=O)N[C@H](C(=O)N[C@@H](CO)C(=O)N[C@@H](Cc1c[nH]c2ccccc12)C(=O)N[C@H](C(=O)N[C@@H](CCCCN)C(=O)N[C@@H](CCCNC(=N)N)C(=O)N[C@@H](CCCCN)C(=O)N[C@@H](CCCNC(=N)N)C(=O)N[C@@H](CCC(N)=O)C(=O)N[C@@H](CCC(N)=O)C(N)=O)[C@@H](C)CC)[C@@H](C)CC)[C@@H](C)O)[C@@H](C)O)C(C)C)C(C)C` [MELITTIN] yielded an IC50 of 7.84 µM.

As a reminder, the IC50 is the concentration that inhibits the measured activity by half.
